Patent US20220040086A1, “FORMULATION AND AEROSOL CANISTERS, INHALERS, AND THE LIKE CONTAINING THE FORMULATION” (KINDEVA DRUG DELIVERY L.P., priority 2018, published 2022)

Assay: Rehydration of anhydrous ipratropium bromide (sample weight over time)
Type: physicochemical
Details: 0 mins after heating 10.0 g monohydrate at 125° C. for 20 minutes
Protocol: The weight of the powder after heating was 9.563 g. The sample was weighed every 10 minutes for 90 minutes and then left over the weekend at 24° C. and 30% humidity.
The sample was then placed in a desiccator for 24 hours and weighed again.

## CC(C)[N+]1(C)[C@@H]2CC[C@H]1CC(OC(=O)C(CO)c1ccccc1)C2.[Br-] (stereo partly shown) [anhydrous ipratropium bromide]
  Sample weight: 9.563 g
